This passage reports IC50 results from paper PMC8521618 (ACS Medicinal Chemistry Letters, 2021).

By UniProt entry, the sequences of proteins in these tests, tags left out. Residues count along the entry.
UniProt Q9BYW2, 1434-1711: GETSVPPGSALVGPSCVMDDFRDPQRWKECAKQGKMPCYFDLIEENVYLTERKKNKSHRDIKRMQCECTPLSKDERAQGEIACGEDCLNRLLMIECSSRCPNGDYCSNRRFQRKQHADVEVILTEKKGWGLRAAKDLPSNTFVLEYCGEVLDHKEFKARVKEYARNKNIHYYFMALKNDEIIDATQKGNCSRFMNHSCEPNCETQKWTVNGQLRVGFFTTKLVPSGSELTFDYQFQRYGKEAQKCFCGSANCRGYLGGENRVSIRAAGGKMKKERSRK

For this test, the target named is SETD2 (1434-1711) (Homo sapiens, UniProt Q9BYW2). Kind of test: biochemical.

What is called IC50 is the point on the concentration scale where inhibition reaches its midpoint.

Molecules are shown by their SMILES.

Molecule `Cc1cccc2cc(C(=O)N[C@H]3CC[C@H](NC(=O)CCN)CC3)[nH]c12` [Compound 2] registered an IC50 of 22.1 µM.
